These results are taken from patent publication US8883749B2, “Transcription factor inhibitors and related compositions, formulations and methods” (The Ohio State University, priority 2009, dated 2014).

The test system of experiment [1] is MDA-MB-231 breast cancer cells. Conditions: LLL12 500 nM with doxorubicin 100-400 nM, 72 hours.
Experiment [2] concerns MDA-MB-231 breast cancer cells. The settings on record: treatment 4 h, migration 24 h.
In experiment [3] the test system is HPAC pancreatic cancer cells. Conditions: LLL12 1000 nM with gemcitabine, 72 hours.
The test system of the next experiment is U87 glioblastoma cells. Put plainly: MTT cell viability assay. The class given is cell-based. Conditions: Homo sapiens, 72 hours, 10% FBS, read-out: half-maximal inhibitory concentration (IC50), cell viability. The protocol: (§1) STAT3 activation is important for tumor cell proliferation and survival. […] A dose-dependent inhibition in tumor cell proliferation/viability was seen after 72 hours of treatment. […] The inhibitory efficacy of the three compounds was compared.
(§2) The cells were incubated at 37° C. for a period of 72 hours. 3-(4,5-Dimethylthiazolyl)-2,5-diphenyltetrazolium bromide (MTT) viability assay was done according to manufacturer's protocol (Roche Diagnostics, Mannheim, Germany). The absorbance was read at 595 nm. Half-maximal inhibitory concentrations (IC50) were determined using Sigma Plot 9.0 Software (Systat Software Inc., San Jose, Calif.).

For experiment [4], the system named is HPAC pancreatic cancer cells. Put plainly: MTT cell viability assay. It is filed as cell-based. The settings on record: Homo sapiens, 72 hours, 10% FBS, read-out: half-maximal inhibitory concentration (IC50), cell viability. Here is the method: as §1, §2
On the technique in general: Tetrazolium assays rely on reduction of a dye to a coloured formazan, in cell work by metabolically active cells.

Experiment [5] has as its system MDA-MB-231 breast cancer cells. Put plainly: MTT cell viability assay. The class given is cell-based. The settings on record: Homo sapiens; MDA-MB-231, MTT, 72 hours, 10% FBS; read-out: half-maximal inhibitory concentration (IC50), cell viability. Here is the method: as §1, §2
The test system of experiment [6] is SK-BR-3 breast cancer cells. Put plainly: MTT cell viability assay. The class given is cell-based. The settings on record: Homo sapiens; SK-BR-3, MTT, 72 hours, 10% FBS; read-out: half-maximal inhibitory concentration (IC50), cell viability. Here is the method: as §1, §2
For another experiment, the system named is U373 glioblastoma cells. Put plainly: MTT cell viability assay. It is filed as cell-based. The settings on record: Homo sapiens, U373 MG, 72 hours, 10% FBS, read-out: half-maximal inhibitory concentration (IC50), cell viability. The protocol:
as §1, §2

Experiment [7] deals with PANC-1 pancreatic cancer cells. Put plainly: MTT cell viability assay. It is filed as cell-based. The settings on record: Homo sapiens; PANC-1, MTT, 72 hours, 10% FBS; read-out: half-maximal inhibitory concentration (IC50), cell viability. Here is the method: as §1, §2

Structures are written as SMILES.

With `NS(=O)(=O)c1cccc2c1C(=O)c1cccc(O)c1C2=O` [LLL12], the “Combinational Index (CI)” value in experiment [1] and in experiment [3] was “less than 1” throughout. In experiment [2], the “concentration causing a significant decrease in cell migration” value is not below 2.5 µM. The IC50 with U87 glioblastoma cells was 210 nM; in [4] it was 160 nM; in experiment [5], 970 nM; in experiment [6] it was 3090 nM; in the experiment with U373 glioblastoma cells, 860 nM; in experiment [7] it was 290 nM.
